Measurements from patent US20150368333A1.
Like-named read-outs stand apart in the source and are kept apart here.

Legend:
[1] = biological target: TNF alpha (species not given) (UniProt P01375); experiment: cell-based or functional assay
[2] = biological target: TNF alpha (species not given) (UniProt P01375); experiment: cell-based or functional assay; remark: listed apart in the source

IC50, TNFα-induced IL-6 release assay (whole blood) [1] | IC50, TNFα-induced IL-6 release assay (whole blood) [2] | Substance | IC50, L929 neutralisation assay (cell viability) [1]
0.62 nM | 0.62 nM | BPC1494 (antibody) | 1.2 µg/mL
0.64 nM | – | BPC1496 (antibody) | 1.18 µg/mL
